Legend:
MC-38 = test: Antitumor activity against mouse MC38 cells allografted in immunocompetent C57BL/6J mouse at 30 mg/kg, ip qd for 13 days in presence of SAHA relative to control; format: functional; conditions: MC-38, 312 h, time 13 day, read-out: TGI
[1] = Toxicity in immunocompetent C57BL/6J mouse allografted with mouse MC38 cells assessed as drug tolerance at 30 mg/kg, ip qd for 13 days in presence of SAHA; format: organism-based, MC-38; conditions: in vivo, 312 h, time 13 day
[2] = Toxicity in immunocompetent C57BL/6J mouse allografted with mouse MC38 cells assessed as body weight loss at 30 mg/kg, ip qd for 13 days in presence of SAHA; format: organism-based, MC-38; conditions: in vivo, 312 h, time 13 day

Q: What does the source list for CCc1c(C#N)c(SC(C(N)=O)c2ccccc2)nc(N2CCC(N)CC2)c1C#N (stereo not drawn)?
A: inhibition in vivo at 30 mg/kg (MC-38): 74%; Activity [1]: Non-Toxic; Activity [2]: Non-Toxic
